# Results from patent US9458184B2, “Compositions of TLR7 and/or TLR8 agonists conjugated to lipids” (CAYLA, priority 2012, dated 2016).
# By UniProt entry, the sequences of proteins in these tests, tags left out. Residues count along the entry.
# UniProt Q9NYK1, 27-1049 limits assumed: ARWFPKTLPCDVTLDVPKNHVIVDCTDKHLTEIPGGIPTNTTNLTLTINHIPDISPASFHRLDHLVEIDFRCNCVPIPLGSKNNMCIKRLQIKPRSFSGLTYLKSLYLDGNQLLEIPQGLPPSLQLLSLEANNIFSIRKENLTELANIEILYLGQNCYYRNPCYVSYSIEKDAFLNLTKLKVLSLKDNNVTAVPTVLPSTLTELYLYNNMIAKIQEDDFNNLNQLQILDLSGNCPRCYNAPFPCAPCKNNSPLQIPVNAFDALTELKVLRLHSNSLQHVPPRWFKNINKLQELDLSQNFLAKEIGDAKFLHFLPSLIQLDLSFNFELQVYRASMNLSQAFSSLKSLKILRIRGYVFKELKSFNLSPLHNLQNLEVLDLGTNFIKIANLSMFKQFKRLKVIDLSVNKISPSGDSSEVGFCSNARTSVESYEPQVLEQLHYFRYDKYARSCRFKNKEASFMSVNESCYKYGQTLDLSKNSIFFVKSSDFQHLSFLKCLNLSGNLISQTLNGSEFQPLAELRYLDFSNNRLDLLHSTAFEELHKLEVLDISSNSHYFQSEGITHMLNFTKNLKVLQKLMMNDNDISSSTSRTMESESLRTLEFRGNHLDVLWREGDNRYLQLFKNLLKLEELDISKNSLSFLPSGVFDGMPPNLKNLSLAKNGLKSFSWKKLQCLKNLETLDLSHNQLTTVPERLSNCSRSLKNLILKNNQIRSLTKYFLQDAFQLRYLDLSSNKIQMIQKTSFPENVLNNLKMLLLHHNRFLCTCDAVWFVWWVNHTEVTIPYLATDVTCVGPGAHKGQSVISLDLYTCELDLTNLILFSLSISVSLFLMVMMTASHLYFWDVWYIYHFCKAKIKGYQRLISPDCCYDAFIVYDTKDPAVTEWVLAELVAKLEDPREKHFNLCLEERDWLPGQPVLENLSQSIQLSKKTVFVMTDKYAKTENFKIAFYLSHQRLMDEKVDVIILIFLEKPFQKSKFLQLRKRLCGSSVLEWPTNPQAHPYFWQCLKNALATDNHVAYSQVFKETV
# This is a selection: effects in other tests are not listed, and their absence says nothing.
# Target: human TLR7 (Homo sapiens, UniProt Q9NYK1)
# Test: HEK-Blue hTLR7 NF-κB/AP-1 SEAP reporter cell assay
# Conditions: molecules alone, 1 or 10 μg/ml, 24 h, HEK-Blue TLR7 cells (FIG. 1A: hTLR7 and mTLR7); specificity checked against other TLR reporter lines
substance,measurement,value
"di(Z)-octadec-9-enyl 1-(4-((6-amino-2-(butylamino)-8-hydroxy-9H-purin-9-yl)methyl) phenyl)-1,4-dioxo-2,5,9,14,18-pentaazahenicosan-21-ylphosphonate",TLR7 activity (NF-κB/AP-1-inducible SEAP reporter),strong and specific TLR7 activity
